Measured values: patent publication US9701672B2, “Dihydropyridinone MGAT2 inhibitors for use in the treatment of metabolic disorders” (BRISTOL-MYERS SQUIBB COMPANY, priority 2014, dated 2017)
pIC50: −log10 of the molar value.

Amino acid sequences for entries named in this document (tags omitted).
UniProt Q3SYC2, whole entry: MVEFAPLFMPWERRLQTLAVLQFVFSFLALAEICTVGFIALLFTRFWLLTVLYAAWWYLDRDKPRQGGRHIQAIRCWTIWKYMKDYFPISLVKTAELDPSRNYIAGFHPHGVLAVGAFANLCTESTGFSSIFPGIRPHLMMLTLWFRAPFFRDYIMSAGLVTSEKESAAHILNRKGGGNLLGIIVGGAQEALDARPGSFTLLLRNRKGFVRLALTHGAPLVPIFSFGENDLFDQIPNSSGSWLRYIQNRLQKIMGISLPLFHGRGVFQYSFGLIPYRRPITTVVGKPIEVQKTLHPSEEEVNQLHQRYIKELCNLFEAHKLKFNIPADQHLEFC

These molecules were tested against human MGAT-2 (Homo sapiens (Human), UniProt Q3SYC2) (assay: MGAT LCMS assay (h-MGAT LCMS)). Settings: read-out: h-MGAT LCMS IC50; human MGAT2 membranes expressed in Sf9 cells; 100 μM 2-oleoylglycerol, 15 μM oleoyl-coenzyme A.
Assay type: biochemical

pIC50	Compound
8.82	O=C1N[C@@](c2ccc(OCCCCCC(F)(F)F)cc2)(C(F)(F)F)CC(c2ccc(C3CC3)s2)=C1c1nnn[nH]1
8.11	O=C1N[C@@](c2cnn(CCCCCC(F)(F)F)c2)(C(F)(F)F)CC(c2ccc(C3CC3)s2)=C1c1nnn[nH]1
9.05	O=C1N[C@@](c2ccc(OCCCCCC(F)(F)F)cc2F)(C(F)(F)F)CC(c2ccc(C3CC3)s2)=C1c1nnn[nH]1
